Test results published in article PMC11947346, “Synthesis and preclinical evaluation of gastrin releasing peptide receptor antagonist [^18F]MeTz-PEG2-RM26 for positron emission tomography” (EJNMMI Radiopharmacy and Chemistry, 2025).
pIC50: −log10 of the molar value.

By UniProt entry, the sequences of proteins in these tests, tags left out. Where a name states a change or a piece, a line headed by the entry shows the natural chain unless it says otherwise.
UniProt P30550: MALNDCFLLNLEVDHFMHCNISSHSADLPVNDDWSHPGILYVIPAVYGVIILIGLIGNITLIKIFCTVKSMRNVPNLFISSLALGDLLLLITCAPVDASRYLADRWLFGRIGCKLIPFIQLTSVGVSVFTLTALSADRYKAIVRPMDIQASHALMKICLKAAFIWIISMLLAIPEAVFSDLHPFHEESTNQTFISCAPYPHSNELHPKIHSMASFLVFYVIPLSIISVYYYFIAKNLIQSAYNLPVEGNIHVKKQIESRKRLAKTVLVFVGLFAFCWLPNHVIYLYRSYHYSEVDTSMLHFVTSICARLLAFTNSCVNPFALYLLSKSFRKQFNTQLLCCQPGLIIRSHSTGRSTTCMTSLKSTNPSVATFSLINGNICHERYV

Target: T1, GRPR (Homo sapiens, UniProt P30550)
T1 construct: investigated using GRPR-expressing PC-3 cells; endogenous in cells; host or cells: PC-3 cells
Experiment: In vitro competitive binding assay against [^125I]I-Tyr^4-BBN; IC50 determination
Conditions: alive PC-3 cells, 5 h at 4°C, 24.6 fmol [^125I]I-Tyr^4-BBN, competitor 0.01–500 nM
Method: The half maximal inhibitory concentration (IC50) was determined for F-MeTz-PEG2-RM2 (8b), Ga-loaded NOTA-PEG2-RM26 (Varasteh et al. [2013b], [2015]) conjugate was used as a comparator. An in vitro competitive binding assay was performed using [^125I]I-Tyr^4-BBN (Revvity, Sollentuna, Sweden) similar to the procedure previously described (Kanellopoulos et al. [2024]). Briefly, 10^5 cells were incubated the day before. The next day cells were incubated for 5 h at 4°C with 24.6 fmol of [^125I]I-Tyr^4-BBN in the presence of increasing concentrations of competitor (0.01–500 nM). After incubation, the cells were collected, and their activity was measured.

Ga-NOTA-PEG2-RM26: Ga-loaded NOTA-PEG2-RM26 conjugate used as comparator in the competitive binding assay [reference compound]
pIC50: 9.06
